# Literature values, collected in US20190336490A1, “COMPOSITIONS AND METHODS FOR INCREASING REMYELINATION” (Frequency Therapeutics, Inc., priority 2018, published 2019).
# By UniProt entry, the sequences of proteins in these tests, tags left out. Where a name states a change or a piece, a line headed by the entry shows the natural chain unless it says otherwise.
# UniProt P11229: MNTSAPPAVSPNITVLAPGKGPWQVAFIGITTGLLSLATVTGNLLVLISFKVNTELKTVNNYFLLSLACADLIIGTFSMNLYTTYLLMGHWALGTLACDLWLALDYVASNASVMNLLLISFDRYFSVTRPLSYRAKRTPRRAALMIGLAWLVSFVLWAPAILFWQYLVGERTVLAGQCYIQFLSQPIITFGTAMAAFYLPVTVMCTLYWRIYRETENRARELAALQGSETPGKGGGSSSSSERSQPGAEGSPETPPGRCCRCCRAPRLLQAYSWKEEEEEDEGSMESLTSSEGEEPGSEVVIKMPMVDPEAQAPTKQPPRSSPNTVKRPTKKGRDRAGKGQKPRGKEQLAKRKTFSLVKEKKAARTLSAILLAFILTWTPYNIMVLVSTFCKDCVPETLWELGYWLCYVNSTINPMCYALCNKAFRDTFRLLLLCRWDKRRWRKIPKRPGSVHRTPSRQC
# Molecular target: muscarinic M1 receptor (Homo sapiens, UniProt P11229)
# Conditions: cited from earlier work
structure (smiles),measurement,value
C[N+]1(C)CCN(CC(O)(c2ccccc2)C2CCCCC2)CC1 (stereo not shown) [Hexocyclium],In vitro M1 (Conc),1.2 nM
